## Measured affinities in a library of Ab-14 light chain variants

Data: MIT Lincoln Laboratory AlphaSeq set, Li et al. 2023, doi:10.1038/s41467-023-39022-2, as distributed in FLAb.

The target is the same throughout: PDVDLGDISGINAS, from the HR2 region of SARS-CoV-2 spike.

The variants keep the heavy chain, the linker and the frameworks of Ab-14 (scFv order VH, the linker GGGGSGGGGSGGGGS, VL).
VH: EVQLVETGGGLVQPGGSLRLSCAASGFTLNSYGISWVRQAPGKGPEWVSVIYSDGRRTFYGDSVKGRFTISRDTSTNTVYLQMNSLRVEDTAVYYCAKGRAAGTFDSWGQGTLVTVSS
VL: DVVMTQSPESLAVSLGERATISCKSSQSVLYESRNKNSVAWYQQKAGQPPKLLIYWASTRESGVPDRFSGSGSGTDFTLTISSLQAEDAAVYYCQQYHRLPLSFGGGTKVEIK

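The parent was found by panning a naive human phage display library on the peptide. Designed CDR sequences, proposed from the first random library and measured here. Their group label is 14L_GP_Gibbs (GP: Gaussian process model; Gibbs: Gibbs sampling; a sequence that several methods proposed may carry one label only). Affinity was read by AlphaSeq, a pooled yeast mating assay with surface-displayed partners. Binding brings cells together so that they mate, and sequencing counts the barcode pairs among the diploids. Each replicate has its own calibration line, from reference interactions of the BCL2 family. The assay was run in six technical replicates.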

The parent's light chain CDRs are KSSQSVLYESRNKNSVA, WASTRES, QQYHRLPLS; each variant's own CDRs replace them letter for letter.
Scale: log10 of Kd in nM, estimated from mating counts; low values are strong binders.
Averages over replicates are reported, and they cover detected replicates only.
Where no diploid with the target was found in that replicate, the entry reads "ND": below detection, most likely a poor binder, though not proof of it.
The authors averaged sequences with at least three values out of six and counted those with two or fewer as poor binders.

| CDR-L1 | CDR-L2 | CDR-L3 | replicates, log10 nM | log10 Kd (nM), mean | empty controls |
|---|---|---|---|---|---|
| KQQILVEQESRQKNSVA | NASKRES | QQYHRLPLS | 0.24 0.25 0.72 0.27 0.62 0.58 | 0.45 | 0 of 18 |
| KTYVSDLYESRNKNSVA | QASERES | QQYHRLPLS | 0.38 0.62 0.21 0.97 0.80 0.87 | 0.64 | 0 of 18 |
| KLMQMPEYESRNANSVA | NASTREE | QQYHRLPLS | -0.11 0.13 -0.24 -0.13 -0.10 -0.09 | -0.09 | 2 of 18 (2.32) |
| KFSQSMLYESRVKNNVA | DASQRES | QMYHRLPLS | 0.85 0.98 0.77 0.66 0.46 0.62 | 0.72 | 2 of 18 (1.88) |
| KVSMSVLYESRVKNSVA | EASQRES | QQYHRLPLS | 0.05 0.00 0.32 0.26 0.11 0.05 | 0.13 | 1 of 18 (2.87) |
| KLQQSQLYESRNTNSVA | QASQREV | QQYHRLPLS | 1.92 1.13 1.03 1.70 1.04 0.74 | 1.26 | 0 of 18 |
| KSEMLVYYGDRNKNSVA | QASTRES | QQYHRLPLS | 0.02 -0.18 -0.23 -0.34 -0.45 -0.09 | -0.21 | 1 of 18 (2.67) |
| KLDWSVMLESRNKNSVA | QASTRMS | QDYHRLPLS | 0.22 -0.06 -0.01 0.01 0.06 0.21 | 0.07 | 1 of 18 (2.71) |
| KVSQSEEYESRMKNSVA | NASYREQ | QQYHRLPLS | 0.42 0.19 0.14 -0.03 -0.04 0.36 | 0.17 | 3 of 18 (2.33) |
| KWSQSVLMESMLSNSVA | NASQRES | QQYHRLPLS | 0.64 0.63 0.45 0.25 0.46 0.55 | 0.50 | 0 of 18 |
| KQQQLVWYEQRNKNSVA | DGSTRES | QQYHRLPLS | 0.12 0.00 0.07 0.01 0.21 0.14 | 0.09 | 2 of 18 (3.36) |
| KMSQSMPYEQRAKNSVA | NASQRES | QQYHRLPLS | 0.59 0.21 0.12 0.58 0.56 0.46 | 0.42 | 4 of 18 (2.48) |
| KLSMSELYESRMCNSVA | EASQREE | QQYHRLPLS | 0.41 0.61 0.65 0.51 0.46 0.65 | 0.55 | 0 of 18 |
| VLQQLGLYEQRNKNSVA | SASTRCS | QQYHRLPLS | 0.48 0.27 0.42 0.33 0.40 0.57 | 0.41 | 1 of 18 (2.00) |
| KISQSVLMESLNKNSVA | EASTRLD | QQYHRLPLS | 0.27 0.58 0.25 -0.01 0.06 -0.04 | 0.19 | 0 of 18 |
| KLQQAELQESRNKNSVA | SASTRES | QQYHRLPLS | -0.35 -0.37 -0.45 -0.48 -0.49 -0.20 | -0.39 | 0 of 18 |
| KLSQSVLYGQRNKNSVA | NASTRMS | QQYHRLPLY | -0.02 -0.23 -0.32 -0.33 -0.13 0.13 | -0.15 | 1 of 18 (2.92) |
| KLQMLELYESRWCNSVA | QASTRES | QQYHRLPLS | 1.42 2.35 ND 3.21 ND ND | 2.33 | 1 of 18 (1.89) |
| KLSQSDLMESRNVNNVA | EASQRES | QQYHRLPLS | -0.02 -0.44 -0.35 -0.39 -0.34 -0.16 | -0.28 | 2 of 18 (3.06) |
| KSEYSCLGESRNCNSVA | SASTREL | QQYHRLPLS | 1.21 0.58 0.75 0.31 0.24 0.90 | 0.66 | 1 of 18 (2.60) |
| KFSPSFLYWSRNSNAVA | EASTRES | QQYHRLPLS | 0.48 0.25 0.13 0.07 0.37 0.20 | 0.25 | 0 of 18 |
| KLSWSVPYEERNLNNVA | HGSTRCS | QQYHRLPLS | 0.43 0.15 0.47 0.02 0.63 0.28 | 0.33 | 0 of 18 |
| KLQQQNLYESRNKNNVA | EASQREQ | QQYHRLPLS | 0.06 -0.15 -0.37 -0.39 -0.08 -0.26 | -0.20 | 0 of 18 |
| KWSQSVDLESRNDNSVA | DASCRED | QQYHRLPLS | 0.83 1.03 0.55 0.81 0.66 0.77 | 0.77 | 1 of 18 (2.10) |
| KSEISVLQESRNQNSVA | SASTREV | QQYHRLPLS | 0.22 -0.12 0.61 -0.02 -0.14 0.33 | 0.15 | 0 of 18 |
| KLSPSWWYESRNKASVA | HASTRES | QQYHRLPLS | 0.57 0.52 0.41 0.35 0.21 0.59 | 0.44 | 1 of 18 (2.38) |
| KFSQSDDYEDRNKNSVA | NASTRSS | QQYHRLPLS | 1.03 0.32 0.69 0.36 0.47 1.68 | 0.76 | 0 of 18 |
| KSSDSVDYEDRNSNSVA | NASQRLW | QQYHRLPLS | 0.71 0.90 0.85 0.77 0.94 1.03 | 0.87 | 2 of 18 (2.71) |
| KSSQSEYYEDANKMSVA | SASQRLS | QQYHRLPLS | 0.14 -0.07 -0.03 -0.09 0.07 -0.06 | 0.00 | 2 of 18 (1.62) |
| KVSQAQDYESRNKNSVA | QASQREQ | QQYHRLPLY | 0.92 1.12 1.60 0.96 1.74 1.27 | 1.27 | 0 of 18 |
| KVDQWWDYESRNKNSVA | NASTRER | QQYHRLPLS | -0.14 -0.15 -0.15 -0.30 -0.26 -0.19 | -0.20 | 2 of 18 (2.15) |
| KMSQEVDLESRNVNSVA | MASTRED | QQYHRLPLS | 0.52 0.69 0.65 0.60 0.43 0.62 | 0.59 | 3 of 18 (2.46) |
| HISQSVEGEESNKNSVA | SASTREQ | QQYHRLPLS | 1.02 0.68 0.66 0.49 0.63 0.59 | 0.68 | 2 of 18 (3.00) |
| KVSWLHWYWSRNKNSVA | EASTREQ | QQYHRLPLS | 1.69 1.66 0.77 0.92 0.95 1.51 | 1.25 | 2 of 18 (2.36) |
| KSSISVDYEDRNQNSVA | SASQREH | QQYHRLPLS | 1.77 1.72 1.73 1.77 2.76 2.06 | 1.97 | 0 of 18 |
| KVPGSNDYESRNKNSVA | EASTREQ | QDYHRLPLS | 0.54 0.33 0.06 0.20 0.06 0.41 | 0.27 | 1 of 18 (4.29) |
| KVSQLEPYESRNKNSVA | NASTREH | QQYHRLPLS | -0.15 -0.41 -0.41 -0.42 -0.36 -0.23 | -0.33 | 1 of 18 (4.89) |
| KLQGSNLYGSRNLNSVA | KASTRLQ | QQYHRLPLS | 1.04 1.12 1.03 0.86 1.17 0.76 | 1.00 | 6 of 18 (3.04) |
| KYQQSEPYESRNKNSVA | NASTRES | QQYHQLPLS | 0.44 0.61 0.41 0.27 0.52 0.64 | 0.48 | 0 of 18 |
| KHEEGVWYESRNKNSVA | NASTRES | QQYHRLPLS | -0.13 -0.06 -0.31 -0.28 -0.45 -0.15 | -0.23 | 2 of 18 (4.33) |
| HLEQSELYESRMKNSVA | NASTRES | QQYHRLPLS | 0.43 0.69 0.92 0.56 0.37 0.89 | 0.64 | 1 of 18 (3.53) |
| KLSQSVLMESRWKNSVA | DASTREE | QQYHRLPLS | 0.59 0.25 -0.18 -0.11 0.02 0.40 | 0.16 | 1 of 18 (1.62) |
| KVSLSVELESRLKNSVA | EASTRCE | QQYHRLPLS | 0.07 -0.49 ND -0.12 1.03 0.76 | 0.25 | 1 of 18 (0.65) |
| KVMQSMWYESRNQNSVA | HASMREQ | QQYHRLPLQ | 0.53 0.43 0.50 0.27 0.35 0.51 | 0.43 | 2 of 18 (2.87) |
| KLSQEVLMGDRNKNSVA | KASTRLS | QQYHRLPLS | 0.70 0.44 0.36 0.42 0.50 0.68 | 0.52 | 1 of 18 (2.64) |

For reference, 4 entries of the list once more:

| CDR-L1 | CDR-L2 | CDR-L3 | replicates, log10 nM | log10 Kd (nM), mean | empty controls |
|---|---|---|---|---|---|
| KLQQSQLYESRNTNSVA | QASQREV | QQYHRLPLS | 1.92 1.13 1.03 1.70 1.04 0.74 | 1.26 | 0 of 18 |
| KLQQAELQESRNKNSVA | SASTRES | QQYHRLPLS | -0.35 -0.37 -0.45 -0.48 -0.49 -0.20 | -0.39 | 0 of 18 |
| KSSISVDYEDRNQNSVA | SASQREH | QQYHRLPLS | 1.77 1.72 1.73 1.77 2.76 2.06 | 1.97 | 0 of 18 |
| KVSQSEEYESRMKNSVA | NASYREQ | QQYHRLPLS | 0.42 0.19 0.14 -0.03 -0.04 0.36 | 0.17 | 3 of 18 (2.33) |

The range of this assay differs from that of the first round, and the authors advise against merging the two.
Nonspecific signal, from three strains lacking the peptide, appeared in 4% of pairings of all light chain designs, centred on 2.64 (5% of these signals below 1.59); values are not corrected for it. For each scFv, signals with the empty controls are counted beside the result, with their mean in brackets.